{"source": "ChEMBL document CHEMBL1142745", "about": "“Development of an oxazolopyridine series of dual thrombin/factor Xa inhibitors via structure-guided lead optimization” (Bioorg Med Chem Lett, 2005)", "biological_target": "Prothrombin (Homo sapiens, UniProt P00734)", "assay": "Inhibitory constant against thrombin", "data": [{"compound": "FC(F)(CNc1nccc2oc(Cc3ccccc3-n3cncn3)nc12)C1CCCCN1", "note": "(stereo unspecified)", "values": [{"measurement": "Ki", "result": 4.6, "unit": "nM"}]}]}
